In PubChem BioAssay AID624038 (The Scripps Research Institute Molecular Screening Center, 2012):
The list shows a part of the results, in another mix than the full data. Activity calls are given as the source filed them.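 Rule for the calls: active = activation above the run cutoff, the mean activation of all test compounds plus 3 SD (cut at about 18% in these data); inactive = the rest.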

By UniProt entry, the sequences of proteins in these tests, tags left out.
UniProt P08912, whole entry: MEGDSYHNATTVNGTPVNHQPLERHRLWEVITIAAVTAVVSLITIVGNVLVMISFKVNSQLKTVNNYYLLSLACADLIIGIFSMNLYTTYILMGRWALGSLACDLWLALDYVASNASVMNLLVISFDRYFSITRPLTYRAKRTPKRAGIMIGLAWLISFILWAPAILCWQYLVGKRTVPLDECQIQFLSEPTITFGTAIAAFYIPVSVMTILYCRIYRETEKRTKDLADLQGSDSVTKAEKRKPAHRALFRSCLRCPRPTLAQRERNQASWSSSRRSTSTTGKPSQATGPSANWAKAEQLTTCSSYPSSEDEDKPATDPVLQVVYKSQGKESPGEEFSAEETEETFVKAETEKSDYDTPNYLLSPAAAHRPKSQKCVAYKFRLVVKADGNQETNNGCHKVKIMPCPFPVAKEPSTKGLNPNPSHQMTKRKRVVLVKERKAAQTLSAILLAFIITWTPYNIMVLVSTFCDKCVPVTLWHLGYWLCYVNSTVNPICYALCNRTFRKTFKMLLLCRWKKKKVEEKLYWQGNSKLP

target: Muscarinic acetylcholine receptor M5 (Homo sapiens) (UniProt P08912); experiment: human M5 muscarinic receptor positive allosteric modulators, primary screen, CHO-K1 cells, Fluo-8 calcium fluorescence (AID 624038); conditions: CHO-K1 hM5, Fluo-8 calcium, ACh EC20 PAM; at 3 µM; active compounds read high; 0% = ACh EC20, 100% = ACh EC100

Row | Compound | activation
1 | CCOC(=O)N1CCC(Nc2ccc(C)cc2)CC1 | inactive: 1.58%
2 | COc1cccc(C(c2nnnn2C(C)(C)C)N2CCC(n3c(=O)[nH]c4ccccc43)CC2)c1OC (stereo not drawn) | inactive: -15%
3 | N/C(=N\O)c1c(N)no[n+]1[O-] | inactive: -0.22%
4 | O=c1[nH]c2ccccc2n1C1CCN(C(c2cccs2)c2nnnn2C2CCCC2)CC1 (stereo not drawn) | inactive: -12.1%
5 | O=C(OC1CN2CCC1CC2)C1c2ccccc2C=Cc2ccccc21 (stereo not drawn) | inactive: -20.1%
6 | CCCCn1nnnc1C(c1cccc(OC)c1OC)N1CCC(n2c(=O)[nH]c3ccccc32)CC1 (stereo not drawn) | inactive: -17.1%
7 | COc1cc(C(=O)NCC2(N3CCOCC3)CCCCC2)cc(OC)c1C | inactive: -0.34%
8 | CCCCn1nnnc1C(c1ccccc1)N1CCC(n2c(=O)[nH]c3ccccc32)CC1 (stereo not drawn) | inactive: -11.3%
9 | O=C(NCC1(N2CCOCC2)CCCCC1)c1cc(Br)ccc1Cl | inactive: 5.26%
10 | O=c1[nH]c2ccccc2n1C1CCN(C(c2cccs2)c2nnnn2C2CCCCC2)CC1 (stereo not drawn) | inactive: -18%
11 | O=c1[nH]c2ccccc2n1C1CCN(C(c2ccnc3ccccc23)c2nnnn2C2CCCC2)CC1 (stereo not drawn) | inactive: -9.75%
12 | COc1ccc(C(=O)NCC2(N3CCOCC3)CCCCC2)cc1OC | inactive: 7.06%
13 | CN(C)C1(CNC(=O)c2cccc(C#N)c2)CCCCC1 | inactive: 1.42%
14 | O=c1[nH]c2ccccc2n1C1CCN(C(c2ccccc2)c2nnnn2C2CCCC2)CC1 (stereo not drawn) | inactive: -14.3%
15 | CCCN1CCC(Nc2cc(OC)cc(OC)c2)CC1 | inactive: -2.38%
16 | Cc1cc(N(CCCl)CCCl)ccc1C=O | inactive: -4.32%
17 | c1ccc(CN2CCC(Nc3ccccc3)CC2)cc1 | inactive: -0.32%
18 | CC(C)(C)n1nnnc1C(c1cccc2ccccc12)N1CCC(n2c(=O)[nH]c3ccccc32)CC1 (stereo not drawn) | inactive: -0.92%
19 | N#Cc1ccc(C(=O)NCC2(N3CCCCC3)CCCCC2)cc1 | inactive: 12.8%
20 | CC(C)(C)OC(=O)N1CCC(N(C(=O)c2ccccc2)c2ccc(Cl)cc2)CC1 | inactive: -1.12%
21 | COc1ccc(C(c2nnnn2C2CCCCC2)N2CCC(n3c(=O)[nH]c4ccccc43)CC2)cc1 (stereo not drawn) | inactive: 7.73%
22 | CCN1CCC(Nc2cccc(F)c2)CC1 | inactive: 4.8%

Row | Compound | activation
23 | CC(C)(C)n1nnnc1C(c1ccnc2ccccc12)N1CCC(n2c(=O)[nH]c3ccccc32)CC1 (stereo not drawn) | inactive: -2.34%
24 | Cc1ccccc1NC1(C#N)CCN(Cc2ccccc2)CC1 | inactive: 4.5%
25 | CN(C)c1ccc(C(=O)NCC2(N3CCCCC3)CCCCC2)cc1 | inactive: 7.12%
26 | Cn1c(=O)[nH]cc(N(CCCl)CCCl)c1=O | inactive: 4.77%
27 | O=C(NCC1(N2CCCCC2)CCCCC1)c1ccco1 | inactive: -1.98%
28 | CCC(c1nnnn1C1CCCCC1)N1CCC(n2c(=O)[nH]c3ccccc32)CC1 (stereo not drawn) | inactive: -3.43%
29 | COc1cccc(C(c2nnnn2C2CCCCC2)N2CCC(n3c(=O)[nH]c4ccccc43)CC2)c1OC (stereo not drawn) | inactive: -21.9%
30 | CC(=O)N(c1ccccc1)C1CCNCC1 | inactive: 0.11%
31 | COc1cc(OC)cc(C(=O)NCC2(N3CCCCC3)CCCCC2)c1 | inactive: 0.45%
32 | O=c1[nH]c2ccccc2n1C1CCN(C(c2ccnc3ccccc23)c2nnnn2C2CCCCC2)CC1 (stereo not drawn) | inactive: -8.92%
33 | Fc1ccccc1NC1CCN(Cc2ccccc2)CC1 | inactive: -1.78%
34 | Cc1ccc(C(=O)NCC2(N3CCCCC3)CCCCC2)o1 | inactive: 2.03%
35 | Cc1ccc(NC2(C#N)CCN(Cc3ccccc3)CC2)cc1 | inactive: 3.76%
36 | COc1cccc(C(=O)N(c2cc(C)cc(C)c2)C2CCN(C(=O)OC(C)(C)C)CC2)c1 | inactive: -5.9%
37 | COc1cc(OC)cc(C(=O)NCC2(N3CCOCC3)CCCCC2)c1 | inactive: 4.23%
38 | COc1cccc(C(c2nnnn2C2CCCC2)N2CCC(n3c(=O)[nH]c4ccccc43)CC2)c1OC (stereo not drawn) | inactive: -22.4%
39 | CCC(CO)(C(=O)OC1CN2CCC1CC2)c1ccccc1 (stereo not drawn) | inactive: -21.1%
40 | CN1CCC(Nc2ccc(Cl)cc2)CC1 | inactive: -0.68%
41 | CN1CCC(Nc2ccc(F)c(Cl)c2)CC1 | inactive: 0.11%
42 | CCOc1ncccc1C(=O)NCC1(N2CCOCC2)CCCCC1 | inactive: -6.3%
43 | NN(c1ccccc1)C1CCN(CCc2ccccc2)CC1 | inactive: -9.52%
44 | O=C(O)C1(Nc2ccccc2)CCN(Cc2ccccc2)CC1 | inactive: -1.91%

Row | Compound | activation
45 | CC(C)(C)OC(=O)N1CCC(Nc2ccccc2)CC1 | inactive: -5.01%
46 | O=c1[nH]c2ccccc2n1C1CCN(C(c2cc3ccccc3o2)c2nnnn2C2CCCC2)CC1 (stereo not drawn) | inactive: -4.05%
47 | CCCOc1ccc(C(=O)NCC2(N(C)C)CCCCC2)cc1 | inactive: -3.39%
48 | Cc1cc(C)cc(N(C(=O)c2ccccc2)C2CCN(C(=O)OC(C)(C)C)CC2)c1 | inactive: -4.1%
49 | O=C(NCC1(N2CCCCC2)CCCCC1)c1ccc(Cl)nc1 | inactive: -4.28%
50 | O=c1[nH]c2ccccc2n1C1CCN(C(c2ccccc2OC(F)(F)F)c2nnnn2C2CCCCC2)CC1 (stereo not drawn) | inactive: 3.4%
51 | O=C(NCC1(N2CCOCC2)CCCCC1)c1cc2ccccc2o1 | inactive: 2.24%
52 | COc1ccc(Cl)cc1C(=O)NCC1(N2CCOCC2)CCCCC1 | inactive: 5.2%
53 | O=C(NCC1(N2CCCCC2)CCCCC1)c1ccc(Cl)s1 | inactive: -0.4%
54 | N#CC1(Nc2ccccc2)CCN(Cc2ccccc2)CC1 | inactive: -9.62%
55 | O=c1[nH]c2ccccc2n1C1CCN(C(c2cc3ccccc3o2)c2nnnn2C2CCCCC2)CC1 (stereo not drawn) | inactive: -4.32%
56 | O=C(OC1CN2CCC1CC2)C1c2ccccc2Oc2ccccc21 (stereo not drawn) | inactive: -22.8%
57 | CCCCn1nnnc1C(c1ccc(OC)cc1)N1CCC(n2c(=O)[nH]c3ccccc32)CC1 (stereo not drawn) | inactive: -7.54%
58 | CCOC(=O)N1CCC(Nc2ccc(OC)cc2)CC1 | inactive: 4.01%
59 | COc1ccc(C(=O)NCC2(N3CCCCC3)CCCCC2)c(OC)c1OC | inactive: 9.51%
60 | CC(C)(C)OC(=O)N1CCC(N(C(=O)c2ccccc2)c2ccc(F)cc2)CC1 | inactive: -0.22%
61 | CCC(c1nnnn1C1CCCC1)N1CCC(n2c(=O)[nH]c3ccccc32)CC1 (stereo not drawn) | inactive: -13.8%
62 | COc1ccc(C(=O)NCC2(N3CCCCC3)CCCCC2)cc1 | inactive: 4.76%
63 | CCCCn1nnnc1C(CC)N1CCC(n2c(=O)[nH]c3ccccc32)CC1 (stereo not drawn) | inactive: -13.4%
64 | O=C(NCC1(N2CCCCC2)CCCCC1)c1cccs1 | inactive: -2.97%
65 | CCCCn1nnnc1C(c1cccs1)N1CCC(n2c(=O)[nH]c3ccccc32)CC1 (stereo not drawn) | inactive: -18.9%
66 | O=C(NCC1(N2CCCCC2)CCCCC1)c1ccc(=O)[nH]c1 | inactive: -6.04%

Row | Compound | activation
67 | Cc1cccc(NC2(C#N)CCN(Cc3ccccc3)CC2)c1 | inactive: 1.68%
68 | CSc1ccccc1C(=O)NCC1(N2CCCCC2)CCCCC1 | inactive: 3.32%
69 | O=c1[nH]c2ccccc2n1C1CCN(C(c2ccccc2)c2nnnn2C2CCCCC2)CC1 (stereo not drawn) | inactive: -3.95%
70 | CCOC(=O)N1CCC(Nc2cccc(C)c2)CC1 | inactive: -4.44%
71 | COc1cc(C(=O)NCC2(N(C)C)CCCCC2)ccc1OC(F)F | inactive: -1.63%
72 | O=c1[nH]c2ccccc2n1C1CCN(C(c2cccc3ccccc23)c2nnnn2C2CCCC2)CC1 (stereo not drawn) | inactive: -0.28%
73 | O=C1CCN(Cc2ccccc2)CC1 | inactive: -0.49%
74 | CC(C)(C)n1nnnc1C(c1ccccc1)N1CCC(n2c(=O)[nH]c3ccccc32)CC1 (stereo not drawn) | inactive: -9%
75 | CCOc1ccc(C)cc1CN(CCCl)CCCl | inactive: -21.9%
76 | CCOC(=O)N1CCC(Nc2ccc(F)cc2)CC1 | inactive: -5.56%
77 | COc1ccc(NC2CCN(CCc3ccccc3)CC2)c(OC)c1 | inactive: -2.86%
78 | CCCCOc1ccc(C(=O)NCC2(N3CCOCC3)CCCCC2)cc1 | inactive: 1.68%
79 | CCCCn1nnnc1C(c1cc2ccccc2o1)N1CCC(n2c(=O)[nH]c3ccccc32)CC1 (stereo not drawn) | inactive: -6.18%
80 | O=P1(N(CCCl)CCCl)SCCCS1 | inactive: 11.5%
81 | O=C(NCC1(N2CCCCC2)CCCCC1)c1ccc(F)cc1 | inactive: -4.42%
82 | O=C(NCC1(N2CCCCC2)CCCCC1)c1cccc(C(F)(F)F)c1 | inactive: 2.96%
83 | O=C(NCC1(N2CCOCC2)CCCCC1)c1cc(=O)[nH]c2ccccc12 | inactive: 0.44%
84 | COc1cc(C(=O)NCC2(N3CCCCC3)CCCCC2)ccc1OC(F)F | inactive: -15.7%
85 | COc1ccc(NC2CCN(C(=O)OC(C)(C)C)CC2)cc1 | inactive: -4.22%
86 | CC(C)c1ccc(C(=O)NCC2(N3CCOCC3)CCCCC2)cc1 | inactive: 4.48%
87 | CN1CCN(CCOC(=O)C(O)(c2ccccc2)c2ccccc2)CC1 | inactive: -20.2%
88 | CCCCn1nnnc1C(c1cccc2ccccc12)N1CCC(n2c(=O)[nH]c3ccccc32)CC1 (stereo not drawn) | inactive: -2.55%

Row | Compound | activation
89 | O=C(NCC1(N2CCCCC2)CCCCC1)c1ccc(OC(F)F)cc1 | inactive: -3.13%
90 | CC(C)(C)n1nnnc1C(c1ccccc1OC(F)(F)F)N1CCC(n2c(=O)[nH]c3ccccc32)CC1 (stereo not drawn) | inactive: -0.79%
91 | O=c1[nH]c2ccccc2n1C1CCN(C(c2ccccc2OC(F)(F)F)c2nnnn2C2CCCC2)CC1 (stereo not drawn) | inactive: 0.18%
92 | N#CC1(Nc2ccccc2)CCN(CCc2ccccc2)CC1 | inactive: 1.63%
93 | CCN1CCC(Nc2ccc(Cl)cc2)CC1 | inactive: -1.63%
94 | O=C(NCC1(N2CCCCC2)CCCCC1)c1cccc([N+](=O)[O-])c1 | inactive: 4.14%
95 | CSc1ccc(C(=O)NCC2(N3CCOCC3)CCCCC2)cc1 | inactive: -1.11%
96 | CN1CCC(Nc2cccc(F)c2)CC1 | inactive: -2.53%
97 | O=C(NCC1(N2CCCCC2)CCCCC1)c1cncc(Br)c1 | inactive: 2.95%
98 | COc1ccc(C(c2nnnn2C2CCCC2)N2CCC(n3c(=O)[nH]c4ccccc43)CC2)cc1 (stereo not drawn) | inactive: -15.6%
99 | CCCOc1ccc(C(=O)NCC2(N(C)C)CCCCC2)cc1OC | inactive: 6.8%
100 | Cc1ccc(C(=O)NCC2(N(C)C)CCCCC2)o1 | inactive: -3.26%
101 | CCCCn1nnnc1C(c1ccccc1OC(F)(F)F)N1CCC(n2c(=O)[nH]c3ccccc32)CC1 (stereo not drawn) | inactive: 1.66%
102 | CC(C)c1ccc(NC2CCN(C(=O)OC(C)(C)C)CC2)cc1 | inactive: -0.61%
103 | CN(C)c1cccc(C(=O)NCC2(N3CCCCC3)CCCCC2)c1 | inactive: -2.87%
104 | COc1ccc(CN(CCCl)CCCl)cc1Cl | inactive: 0.59%
105 | CCC(c1nnnn1C(C)(C)C)N1CCC(n2c(=O)[nH]c3ccccc32)CC1 (stereo not drawn) | inactive: -8.49%
106 | O=C(NCC1(N2CCOCC2)CCCCC1)c1cc(F)c(F)cc1Cl | inactive: 1.44%
107 | COc1cc(OC)c(C(=O)NCC2(N(C)C)CCCCC2)cc1OC | inactive: 3.23%
108 | CCCCn1nnnc1C(c1ccnc2ccccc12)N1CCC(n2c(=O)[nH]c3ccccc32)CC1 (stereo not drawn) | inactive: -13%
